This is an account of results in patent US20260274913A1 (Amgen, published 2026).

The chains behind the UniProt entries cited, without tags or fusion partners. Residues count along the entry.
UniProt Q9NP99, 21-234 limits assumed: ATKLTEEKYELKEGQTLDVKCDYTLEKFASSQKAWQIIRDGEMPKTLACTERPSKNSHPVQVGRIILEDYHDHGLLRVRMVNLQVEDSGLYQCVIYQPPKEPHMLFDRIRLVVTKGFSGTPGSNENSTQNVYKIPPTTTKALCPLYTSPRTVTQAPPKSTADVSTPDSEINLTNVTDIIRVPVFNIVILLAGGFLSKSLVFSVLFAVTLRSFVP
UniProt Q9NP99, 21-205: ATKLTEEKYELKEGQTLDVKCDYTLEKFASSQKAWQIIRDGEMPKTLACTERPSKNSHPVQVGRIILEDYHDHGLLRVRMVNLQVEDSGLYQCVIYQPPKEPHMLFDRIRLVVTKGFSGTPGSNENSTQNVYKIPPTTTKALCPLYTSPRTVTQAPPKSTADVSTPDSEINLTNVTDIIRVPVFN

The target in assay [1] is T1, human TREM-1 (human, UniProt Q9NP99 21-234). Put plainly: cell-based or functional assay.
In a further assay the target is T2, cyno TREM-1-His protein (cynomolgus monkey, UniProt A0A2K5VHG8 21-204).
T2 construct: extracellular domain; Soluble analyte of the Octet assay; not shown: His tag
T2 sequence: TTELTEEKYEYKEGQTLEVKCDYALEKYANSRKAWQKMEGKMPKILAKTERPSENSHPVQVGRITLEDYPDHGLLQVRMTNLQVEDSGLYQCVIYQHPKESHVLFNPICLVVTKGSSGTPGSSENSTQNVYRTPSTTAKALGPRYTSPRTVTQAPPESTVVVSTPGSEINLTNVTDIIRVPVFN
Put plainly: BLI (Octet HTX), antibody captured on anti-human Fc sensor, cyno TREM-1-His as analyte, 1:1 model. As for the experimental part: (§1) Briefly, TREM-1 hybridoma supernatants normalized to 10 μg/mL in DMEM null media were prepared by diluting 1:10 in OCTET® assay buffer (10 mM Tris, 0.1% Triton X-100, 150 mM NaCl, 1 mM CaCl₂), 0.1 mg/mL BSA, at pH 7.6) to a final test concentration of 1 μg/mL. Amine reactive second-generation AR2G Biosensors (Molecular Devices) were pre-incubated in 200 μL nanopore water for a minimum of 10 minutes at room temperature before use. The AR2G Biosensors were then activated for 5 minutes in a solution of 20 mM EDC (1-Ethyl-3-[3-dimethylaminopropyl]carbodiimide hydrochloride) (ForteBio) pre-mixed with 10 mM NHS (N-hydroxysulfosuccinimide) (ForteBio) in nanopore water. An in-house generated mouse anti-human Fc monoclonal antibody was coupled to the AR2G Biosensors at 10 μg/mL in 10 mM sodium acetate buffer at pH 5 for 5 minutes, quenched with 1M ethanolamine at pH 8.5 for 5 minutes, and then used to capture antibody from solution. The TREM-1 test antibodies were loaded onto the Biosensors for 5 minutes, and baseline measurements were taken for 1 minute. […] The association of recombinant human TREM-1 with the antibody-loaded sensor was measured for 5 minutes, followed by dissociation in OCTET® buffer for 10 minutes. Biosensors were then regenerated with 10 mM glycine at pH 1.7, reloaded with the same TREM-1 antibodies on the same sensors for 5 minutes, and the same method was used to measure association and dissociation of cyno TREM-1-His protein. Data was referenced using a 0 nM analyte reference sensor. Kinetic analysis was performed using a 1:1 Langmuir model with mass transfer in Genedata Screener software.

For assay [2], the target named is T3, recombinant soluble human TREM-1-His protein (human, UniProt Q9NP99 21-205, biotinylated in the bead assays of Tables 6 and 7 (sites not given)).
T3 construct: also called b-huTREM-1-His; biotinylated human TREM-1-His antigen; not shown: His tag
Nature of the assay: BLI (Octet HTX), antibody captured on anti-human Fc sensor, soluble human TREM-1-His as analyte, 1:1 model. As to the method: as §1
Background: BLI is a label-free optical method that tracks binding on a fibre tip over time.

Assay [3] addresses T1, human TREM-1. Nature of the assay: flow cytometry competition, competitor PGLYRP1-His/PGN on HEK293 cells with human TREM1/DAP12, antibody 2.5 ug/mL. On the technique in general: In flow cytometry, cells or beads pass a laser one at a time.
Assay [4] concerns the target T3, recombinant soluble human TREM-1-His …. Nature of the assay: limiting antigen assay, biotinylated huTREM-1-His at 7.5 ng/ml on LumAvidin beads, antibody 5 ug/mL, flow cytometry.
The target of assay [5] is T4, cyno TREM-1 (cynomolgus monkey, UniProt A0A2K5VHG8 21-233).
T4 construct: whole, on cells; also called cynomolgus TREM-1
T4 sequence: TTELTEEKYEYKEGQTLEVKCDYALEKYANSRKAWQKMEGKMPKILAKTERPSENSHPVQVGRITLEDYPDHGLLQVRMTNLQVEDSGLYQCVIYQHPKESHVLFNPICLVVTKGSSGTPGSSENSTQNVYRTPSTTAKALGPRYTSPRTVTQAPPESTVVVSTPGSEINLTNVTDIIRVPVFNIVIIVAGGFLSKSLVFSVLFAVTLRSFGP
Put plainly: flow cytometry on HEK293 cells transfected with cyno TREM-1 and DAP12, supernatant 2.5 ug/mL, geomean fold over irrelevant control antibody.

Assay [6] has as its target T1, human TREM-1. Nature of the assay: flow cytometry on HEK293 cells transfected with human TREM-1 and DAP12, supernatant 2.5 ug/mL, geomean fold over irrelevant control antibody.
Assay [7] addresses T4, cyno TREM-1. Nature of the assay: cell-based or functional assay.

B1: 61B12 (antibody, V domains shown)
VH: QVQLVQSGAEVTKPGASVKVSCKASGYTFTRYDINWVRQATGQGLEWMGWMNPNSGNSGSVQKFRGRVTMTRNTSITTVYMELSSLRSDDTAVYYCARGGISSSWHWAFDIWGQGTMVTVSS
VL: DIQMTQSPSSLSASVGDRVTITCQASQDINNHLNWYQQKPGKAPKLLIYGAYTLETGVPSRFSGSGSGTDFTFTISSLQPEDIATYYCQQYDKLPLTFGGGTKVEIK
With B1, the “Ab IC50-Human PBMC (Trial 1), TNFα release induced by PGLYRP1/PGN” value with human TREM-1 [1] was found to be 8 pM. In the assay with cyno TREM-1-His protein, the koff (in general, a measure of how fast the partners let go of each other) was found to be 0.000495 s⁻¹ and the kon (commonly the rate constant with which the complex forms) stood at 391000 M⁻¹ s⁻¹. In assay [2], the Kd (usually the free concentration of one partner at which half of the binding sites on the other are occupied at equilibrium, for simple one-to-one binding) was under 557 pM; the koff was under 0.000176 s⁻¹; the kon was 316000 M⁻¹ s⁻¹. The Receptor-ligand % inhibition with human TREM-1 [3] came out at 87%. For the same molecule, the “FACS Geomean” value in assay [4] was found to be 26900. In addition, the “GM Fold” value with cyno TREM-1 [5] worked out at 2090 fold. Besides, in the assay with human TREM-1 [6], the “GM Fold” value came out at 1850 fold.

B2: 63F8 (antibody, V domains shown)
VH: QVQLVQSGAEVKKPGASVKVSCKASGYTFTSYDINWVRQATGQGLEWMGRMNPKSGNAGYVQNFRGRVTMTRNTSISTAYMELSSLRSEDTAVYYCARGGRTSIWSFVFDYWGQGTLVTVSS
VL: DIQMTQSPSSLSASVGDRVTITCQASQDISKHLNWYQQKPGKAPKLLIYDTSNLETGVPSRFSGSGSGTDFTFTISSLQPEDIATYNCQQYDKLPLTFGGGTKVEIK
Consider B2, for which, in the assay with human TREM-1 [1], the “Ab IC50-Human PBMC (Trial 1), TNFα release induced by PGLYRP1/PGN” value amounted to 3.8 pM and the “Ab IC50-Human PBMC (Trial 2), TNFα release induced by PGLYRP1/PGN” value is 3.1 pM. In the assay with cyno TREM-1-His protein, this molecule returned a koff of 0.000644 s⁻¹ and a kon of 752000 M⁻¹ s⁻¹. In assay [2], the Kd is under 220 pM, the koff is under 0.000176 s⁻¹ and the kon came out at 799000 M⁻¹ s⁻¹. In addition, the Receptor-ligand % inhibition with human TREM-1 [3] worked out at 93%. Further, in assay [4], the “FACS Geomean” value stood at 25800. Further, the “GM Fold” value with cyno TREM-1 [5] worked out at 2370 fold. Besides, the “GM Fold” value in the assay with human TREM-1 [6] was 1380 fold.

B3: 30H2 (antibody, V domains shown)
VH: EVQVLESGGGLVQPGESLRLSCTASGFTFNAYAMSWVRQAPGKGLEWVSTISGSGSTTYYADSVKGRFTISRDNSKNTLDLQMNSLRAADTAVYYCAKVAGSNFFFDHWGQGTLVTVSS
VL: EIVMTQSPATLSVSPGERATLSCRASQSINSNLAWYQQKPGQAPRLLIYGAYTRATGIPDRFSGSGSGTEFTLTISSLQSEDFAVYYCQEFIMWPPWTFGLGTQVEIK
notes: also called 19330
For B3, the “Ab IC50-Human PBMC (Trial 1), TNFα release induced by PGLYRP1/PGN” value with human TREM-1 [1] amounted to 6.9 pM. Moreover, the figures for the dissociation rate constant (koff) (with cyno TREM-1-His protein; in assay [2]) were 0.00122 s⁻¹ and 0.000293 s⁻¹, respectively. Further, the kon was 214000 M⁻¹ s⁻¹ in the assay with cyno TREM-1-His protein and 326000 M⁻¹ s⁻¹ in assay [2]. In assay [2], the Kd worked out at 898 pM. Also, the Receptor-ligand % inhibition with human TREM-1 [3] is 101%. Further, the “FACS Geomean” value in assay [4] turned out to be 91700. The “GM Fold” value with cyno TREM-1 [5] was 76.9 fold; with human TREM-1 [6], 108 fold.

B4: 34D1 (antibody, V domains shown)
VH: QVQLVQSGAEVKKPGASVKVSCKASGYTFTRYDINWVRQATGQGLEWMGWMNPNSGNSGSVQKFRGRVTMTRNTSIHIAYMELSSLRSEDTAVYYCARGGYTSSWRWYFDLWGRGTLVTVSS
VL: DIQMTQSPSSLSASVGDRVNITCQASQDIRKHLNWYQQKPGKAPNLLIYDAANLETGVPSRFSGSGSGTAFTFTISSLQPEDIATYYCQHYANLPITFGQGTRLEIK
For B4, in the assay with human TREM-1 [1], the “Ab IC50-Human PBMC (Trial 1), TNFα release induced by PGLYRP1/PGN” value came out at 10 pM and the “Ab IC50-Human PBMC (Trial 2), TNFα release induced by PGLYRP1/PGN” value came out at 6.9 pM. For the same molecule, in the assay with cyno TREM-1 [7], the “Ab IC50-Cyno PBMC (Trial 1), TNFα release induced by cyno PGLYRP1/PGN” value came out at 100 pM and the “Ab IC50-Cyno PBMC (Trial 2), TNFα release induced by cyno PGLYRP1/PGN” value is 16.2 pM. In the assay with cyno TREM-1-His protein, this molecule yielded a dissociation rate constant (koff) of 0.00128 s⁻¹ and a kon of 258000 M⁻¹ s⁻¹. In assay [2], the Kd came out at 881 pM, the koff came out at 0.000205 s⁻¹ and the association rate constant (kon) stood at 233000 M⁻¹ s⁻¹. Besides, in the assay with human TREM-1 [3], the Receptor-ligand % inhibition was 101%. For the same molecule, the “FACS Geomean” value in assay [4] was found to be 80400. The “GM Fold” value in the assay with cyno TREM-1 [5] came to 228 fold. For the same molecule, in the assay with human TREM-1 [6], the “GM Fold” value is 246 fold.

B5: 61G5 (antibody, V domains shown)
VH: QVQLVQSGAEVKKPGASVKVSCKASGYTFTSYDINWVRQATGQGLEWMGWMNPNSGNSGSVKKFRDRVTMTRNTSISTAYMELSSLRSEDTAVYYCVRLIGYSSAWKWSFQHWGQGTLVTVSS
VL: DIQMTQSPSSLSASVGDRVTITCQASRDISKYLNWYQQKPGKAPKLQIYDASNLETGVPSRFSGSGSGTDFTFTISSLQPEDIATYYCQHYDNIPITFGQGTRLEIK
Regarding B5, in the assay with human TREM-1 [1], the “Ab IC50-Human PBMC (Trial 1), TNFα release induced by PGLYRP1/PGN” value came out at 10.2 pM and the “Ab IC50-Human PBMC (Trial 2), TNFα release induced by PGLYRP1/PGN” value turned out to be 2.7 pM. In the assay with cyno TREM-1-His protein, the koff amounted to 0.000476 s⁻¹ and the kon is 364000 M⁻¹ s⁻¹. In assay [2], the Kd was under 285 pM, the koff was under 0.000176 s⁻¹ and the kon was found to be 618000 M⁻¹ s⁻¹. The Receptor-ligand % inhibition with human TREM-1 [3] stood at 91%. Moreover, in assay [4], the “FACS Geomean” value worked out at 24800. Besides, in the assay with cyno TREM-1 [5], the “GM Fold” value was 2160 fold. Also, the “GM Fold” value with human TREM-1 [6] is 2070 fold.
